Laboratory results published in patent US10336757B2, “Treatment of neurodegenerative diseases through inhibition of HSP90” (Sloan-Kettering Institute for Cancer Research, priority 2006, dated 2019).
“And” between values parts separate entries of the source, which are not always exact repeats. Identical values can stand only once.

The compounds below were run against hsp90 in JNPL3 brain extracts (assay: Binding to JNPL3 brain Hsp90, fluorescence polarization competition with GM-cy3B). Conditions: compounds of FIG. 5; displacement of 3 nM GM-cy3B, JNPL3 brain homogenate, 24 h at 4° C.; unit inferred; read-out: EC50.
Design: species or system mouse
Method: Binding to JNPL3 brain Hsp90. The assay buffer (HFB) contained 20 mM HEPES (K) pH 7.3, 50 mM KCl, 5 mM MgCl2, 20 mM Na2MoO4, 0.01% NP40. Before each use, 0.1 mg/mL bovine gamma globulin (BGG) (Panvera Corporation, Madison, Wis.) and 2 mM DTT (Fisher Biotech, Fair Lawn, N.J.) were freshly added. GM-cy3B, a specific Hsp90 ligand, was synthesized as previously reported (10) and was dissolved in DMSO to form 10 μM solutions. Brains were homogenized in HFB with added protease and phosphatase inhibitors. Saturation curves were recorded in which GM-cy3B (3 nM) was treated with increasing amounts of brain homogenates. […] The amount of brain homogenate for which over 90% of GM-cy3B was Hsp90 bound at equilibrium (24 h) was chosen for the competition study. For the competition experiments, each 96-well contained 3 nM GM-cy3B, brain homogenate and tested inhibitor (initial stock in DMSO) in a final volume of 100 μL. The plate was left on a shaker at 4° C. for 24 h and the fluorescence polarization values in mP were recorded. EC50 values were determined as the competitor concentrations at which 50% of GM-cy3B was displaced. Fluorescence polarization measurements were performed on an Analyst GT instrument (Molecular Devices, Sunnyvale, Calif.). For GM-cy3B, an excitation filter at 545 nm and an emission filter at 610 to 675 nm were used with a dichroic mirror of 565 nm. Measurements were taken in black 96-well microtiter plates.

Structure (SMILES)	EC50 [nM]
Nc1nc(F)nc2c1nc(Cc1cc3c(cc1I)OCO3)n2CCCN1CCN(CCO)CC1 [PU-BSI3]	199
CC(C)N(CCO)CCCn1c(Cc2cc3c(cc2I)OCO3)nc2c(N)nc(F)nc21 [PU-BSI6]	60.8
C=CCN(C)CCCn1c(Cc2cc3c(cc2I)OCO3)nc2c(N)nc(F)nc21 [PU-BSI7]	44.5
CC1CN1CCCn1c(Cc2cc3c(cc2I)OCO3)nc2c(N)nc(F)nc21 (stereo not shown) [PU-BSI10]	105
C#CCN(C)CCCn1c(Cc2cc3c(cc2I)OCO3)nc2c(N)nc(F)nc21 [PU-BSI11]	210
CC(C)N(C)CCCn1c(Cc2cc3c(cc2I)OCO3)nc2c(N)nc(F)nc21 [PU-BSI12]	39.4
CCCN(CCCn1c(Cc2cc3c(cc2I)OCO3)nc2c(N)nc(F)nc21)C1CC1 [PU-BSI14]	42.8
Nc1nc(F)nc2c1nc(Cc1cc3c(cc1I)OCO3)n2CCCN1CCOCC1 [PU-BSI16]	202
CC(C)NCCCn1c(Cc2cc3c(cc2Br)OCO3)nc2c(N)nc(F)nc21 [PU-DZ10]	193
CC(C)NCCCn1c(Sc2cc3c(cc2Br)OCO3)nc2c(N)ncnc21 [PU-HT64]	122
C=Cc1cc2c(cc1Sc1nc3c(N)ncnc3n1CCCNC(C)C)OCO2 [PU-HT65]	213
C=Cc1cc2c(cc1Cc1nc3c(N)nc(F)nc3n1CCCNC(C)C)OCO2 [PU-HT70]	147
C=CCc1cc2c(cc1Cc1nc3c(N)nc(F)nc3n1CCCNC(C)C)OCO2 [PU-HT78]	9560
CCc1cc2c(cc1Cc1nc3c(N)nc(F)nc3n1CCCNC(C)C)OCO2 [PU-HT133]	813

Same assay, conditions: displacement of 3 nM GM-cy3B, JNPL3 brain extracts; read-out: EC50 JNPL3 brain Hsp90

Structure (SMILES)	EC50
CC(C)NCCCn1c(Cc2cc3c(cc2I)OCO3)nc2c(N)nc(F)nc21 [PU-DZ8]	46.7 nM and 70 nM

Same assay, conditions: read-out: EC50 JNPL3 brain Hsp90

Structure (SMILES)	EC50 [nM]
C=CCNC1=C2C[C@@H](C)C[C@H](OC)[C@H](O)[C@@H](C)/C=C(\C)[C@H](OC(N)=O)[C@@H](OC)/C=C\C=C(/C)C(=O)NC(=CC1=O)C2=O [Compound 17AAG, 17-(allyllamino)-17-demethoxygeldanamycin]	98.4
